# Measured values: PubChem BioAssay AID950 (NMMLSC, 2007)
# Protein sequences, listed by entry. Tags and fused reporters are not part of them.
# UniProt P10415, whole entry: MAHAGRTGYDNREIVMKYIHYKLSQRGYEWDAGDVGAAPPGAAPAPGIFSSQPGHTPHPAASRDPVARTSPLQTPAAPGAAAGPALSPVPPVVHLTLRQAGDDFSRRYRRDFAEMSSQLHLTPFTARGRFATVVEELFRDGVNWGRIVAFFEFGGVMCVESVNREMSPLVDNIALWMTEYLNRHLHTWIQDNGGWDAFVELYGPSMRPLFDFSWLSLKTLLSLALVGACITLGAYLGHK
# The entries are a selection whose mix differs from that of the whole data set. The source made the active and inactive calls. Rule as the data show it: active = inhibition above about 40%; inconclusive = no clear call, values can overlap the other calls; inactive = below that.
# Target: Apoptosis regulator Bcl-2 (Homo sapiens) (UniProt P10415)
# Assay: Bcl-2 and Bim peptide interaction disruptors – biochemical, multiplexed, human Bcl-2 family, primary screen (AID 950);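 also: 0% = no compound wells with probe peptide and 100% = reference peptide inhibitor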
# Conditions: Bead-based flow cytometry, Bim peptide-Bcl-2 binding; at 10 µM; hits give high values
row,SMILES,inhibition
1,COc1ccc(C(=O)NCC2(N3CCCCC3)CCCCC2)c(OC)c1OC,inactive: -4%
2,CCOC(=O)N1CCC(Nc2ccc(OC)cc2)CC1,inactive: -1%
3,O=C(OC1CN2CCC1CC2)C1c2ccccc2Oc2ccccc21 (stereo not given),inactive: -3%
4,O=C(NCC1(N2CCOCC2)CCCCC1)c1cc2ccccc2o1,inactive: 11%
5,COc1ccc(NC2CCN(CCc3ccccc3)CC2)c(OC)c1,inactive: -8%
6,O=C(NCC1(N2CCCCC2)CCCCC1)c1cccc([N+](=O)[O-])c1,inactive: 0%
7,N#CC1(Nc2ccccc2)CCN(CCc2ccccc2)CC1,inactive: 0%
8,CN1CCN(CCOC(=O)C(O)(c2ccccc2)c2ccccc2)CC1,inactive: -5%
9,COc1ccc(NC2CCN(C(=O)OC(C)(C)C)CC2)cc1,inactive: 0%
10,O=C(NCC1(N2CCOCC2)CCCCC1)c1cc(=O)[nH]c2ccccc12,inactive: -5%
11,COc1ccc(CN(CCCl)CCCl)cc1Cl,inactive: -1%
12,CN(C)c1cccc(C(=O)NCC2(N3CCCCC3)CCCCC2)c1,inactive: 2%
13,CC(C)c1ccc(NC2CCN(C(=O)OC(C)(C)C)CC2)cc1,inactive: 0%
14,COc1ccc(C(=O)NCC2(N3CCOCC3)CCCCC2)cc1OC,inactive: -3%
15,O=C(OC1CN2CCC1CC2)C1c2ccccc2C=Cc2ccccc21 (stereo not given),inactive: -4%
16,N/C(=N\O)c1c(N)no[n+]1[O-],inactive: -3%
17,N#Cc1ccc(C(=O)NCC2(N3CCCCC3)CCCCC2)cc1,inactive: -2%
18,c1ccc(CN2CCC(Nc3ccccc3)CC2)cc1,inactive: -3%
19,Fc1ccccc1NC1CCN(Cc2ccccc2)CC1,inactive: 1%
20,CN(C)c1ccc(C(=O)NCC2(N3CCCCC3)CCCCC2)cc1,inactive: 0%
21,CCN1CCC(Nc2cccc(F)c2)CC1,inactive: -2%
22,CC(C)(C)OC(=O)N1CCC(Nc2ccccc2)CC1,inactive: -2%
23,CCOc1ncccc1C(=O)NCC1(N2CCOCC2)CCCCC1,inactive: 1%
24,CCC(CO)(C(=O)OC1CN2CCC1CC2)c1ccccc1 (stereo not given),inactive: -2%
25,COc1cc(OC)cc(C(=O)NCC2(N3CCOCC3)CCCCC2)c1,inactive: -2%
